Values quoted from earlier work in PMC9785542, “Discovery of 1-Benzhydryl-Piperazine-Based HDAC Inhibitors with Anti-Breast Cancer Activity: Synthesis, Molecular Modeling, In Vitro and In Vivo Biological Evaluation” (Pharmaceutics, 2022).

Protein sequences, listed by entry. Tags and fused reporters are not part of them. Lines headed by an entry give the natural chain unless they say otherwise; changes in a name come on top.
UniProt O15379: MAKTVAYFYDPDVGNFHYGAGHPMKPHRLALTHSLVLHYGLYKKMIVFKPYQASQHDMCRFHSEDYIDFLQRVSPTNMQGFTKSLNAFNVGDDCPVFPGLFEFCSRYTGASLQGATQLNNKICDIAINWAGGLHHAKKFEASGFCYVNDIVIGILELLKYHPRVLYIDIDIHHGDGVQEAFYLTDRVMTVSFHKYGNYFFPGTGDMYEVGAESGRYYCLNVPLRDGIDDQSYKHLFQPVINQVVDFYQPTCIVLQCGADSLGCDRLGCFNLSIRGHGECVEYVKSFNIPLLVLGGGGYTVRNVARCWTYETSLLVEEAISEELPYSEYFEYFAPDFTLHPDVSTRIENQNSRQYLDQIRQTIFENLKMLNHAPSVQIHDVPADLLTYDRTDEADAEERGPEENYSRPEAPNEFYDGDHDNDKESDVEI

Target: Human recombinant HDAC-3/NcoR2 (Homo sapiens, UniProt O15379)
Conditions: read-out: HDAC Inhibition, IC50, HDAC3; cited from earlier work

## CCCC(CCC)C(=O)O [Valproic acid]
  IC50: > 1000 µM
